From US8906943B2, “Synthetic compounds and methods to decrease nicotine self-administration” (priority 2010, dated 2014) come the findings set out here.

Chains of the proteins cited; added tags and fusions are not shown. Lines headed by an entry give the natural chain unless they say otherwise; changes in a name come on top.
UniProt P11509: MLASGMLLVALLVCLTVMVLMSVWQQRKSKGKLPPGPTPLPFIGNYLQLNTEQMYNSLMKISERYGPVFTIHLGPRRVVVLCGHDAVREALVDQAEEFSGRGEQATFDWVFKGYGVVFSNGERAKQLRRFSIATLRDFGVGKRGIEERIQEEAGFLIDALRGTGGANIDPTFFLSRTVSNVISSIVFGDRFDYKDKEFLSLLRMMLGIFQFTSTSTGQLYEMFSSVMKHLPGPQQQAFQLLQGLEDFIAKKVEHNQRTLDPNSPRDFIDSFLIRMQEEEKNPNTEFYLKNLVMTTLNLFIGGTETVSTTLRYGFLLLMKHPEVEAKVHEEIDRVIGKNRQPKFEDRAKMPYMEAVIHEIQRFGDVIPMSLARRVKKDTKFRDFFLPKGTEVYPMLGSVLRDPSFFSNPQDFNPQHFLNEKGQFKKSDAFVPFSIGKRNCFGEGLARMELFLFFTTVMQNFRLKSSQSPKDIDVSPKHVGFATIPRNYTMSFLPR

For this data set, the target named is human CYP2A6 (Homo sapiens (Human), UniProt P11509). The experiment in a line: Inhibition of human CYP2A6-mediated coumarin 7-hydroxylation. The following applies: Table 1; purified human CYP2A6, nine concentrations; read-out: hCYP2A6 IC50. Type of data set: biochemical. As to the method:
Our first studies were with highly purified human CYP2A6 that provided a convenient and relatively high-throughput measure of CYP2A6 inhibition. Full dose-response IC50 values (nine concentrations) were determined (Table 1).

Each structure is given as a SMILES string. pIC50: −log10 of the molar value.

Take `NCc1ccc(-c2cccnc2)s1` [Compound 4]: the pIC50 is 6.80.
